From patent US20140187548A1, “6 SUBSTITUTED IMIDAZOPYRAZINES FOR USE AS MPS-1 AND TKK INHIBITORS IN THE TREATMENT OF HYPERPROLIFERATIVE DISORDERS” (BAYER INTELLECTUAL PROPERTY GMBH, priority 2010, published 2014)

By UniProt entry, the sequences of proteins in these tests, tags left out.
UniProt P33981, whole entry: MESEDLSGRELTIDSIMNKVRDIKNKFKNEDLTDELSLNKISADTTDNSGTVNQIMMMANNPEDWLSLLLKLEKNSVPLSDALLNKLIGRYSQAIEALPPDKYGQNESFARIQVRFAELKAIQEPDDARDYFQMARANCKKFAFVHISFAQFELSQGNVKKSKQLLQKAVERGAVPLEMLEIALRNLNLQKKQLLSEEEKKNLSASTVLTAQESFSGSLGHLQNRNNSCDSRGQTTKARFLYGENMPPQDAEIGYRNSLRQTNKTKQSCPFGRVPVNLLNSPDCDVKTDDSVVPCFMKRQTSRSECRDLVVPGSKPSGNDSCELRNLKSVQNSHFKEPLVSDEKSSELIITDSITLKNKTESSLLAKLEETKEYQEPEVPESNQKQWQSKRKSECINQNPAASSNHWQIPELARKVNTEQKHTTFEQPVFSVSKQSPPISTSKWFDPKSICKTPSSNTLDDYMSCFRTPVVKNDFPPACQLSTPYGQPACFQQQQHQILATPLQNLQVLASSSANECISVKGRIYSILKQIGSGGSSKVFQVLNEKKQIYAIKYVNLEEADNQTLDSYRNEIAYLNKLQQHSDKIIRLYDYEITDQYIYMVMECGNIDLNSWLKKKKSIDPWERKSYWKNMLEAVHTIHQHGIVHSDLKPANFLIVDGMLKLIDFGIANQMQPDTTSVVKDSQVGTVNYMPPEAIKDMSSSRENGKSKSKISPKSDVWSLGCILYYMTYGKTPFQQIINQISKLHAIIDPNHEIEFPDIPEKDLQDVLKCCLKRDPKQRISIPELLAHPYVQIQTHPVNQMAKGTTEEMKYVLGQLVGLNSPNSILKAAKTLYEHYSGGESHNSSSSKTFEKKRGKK

Target: human kinase Mps-1 (Homo sapiens, UniProt P33981)
Assay: Mps-1 kinase assay (TR-FRET)
Conditions: read-out: Mps-1 IC50; N-terminally GST-tagged human full length recombinant Mps-1; 10 μM ATP; 1 μM peptide substrate; 15 min pre-incubation; 60 min at 22° C.

Cc1cc(-c2cnc3c(NCC4CN(C)CCO4)nc(-c4ccc(F)cc4)cn23)ccc1C(=O)NC1CC1 (stereo not shown) gave an IC50 of 37 nM.
